This note sets out measurements from US9326978B2, “A3 adenosine receptor allosteric modulators” (The United States of America, Represented by the Secretary, …, priority 2006, dated 2016).

Protein sequences, listed by entry. Tags and fused reporters are not part of them.
UniProt P30542, whole entry: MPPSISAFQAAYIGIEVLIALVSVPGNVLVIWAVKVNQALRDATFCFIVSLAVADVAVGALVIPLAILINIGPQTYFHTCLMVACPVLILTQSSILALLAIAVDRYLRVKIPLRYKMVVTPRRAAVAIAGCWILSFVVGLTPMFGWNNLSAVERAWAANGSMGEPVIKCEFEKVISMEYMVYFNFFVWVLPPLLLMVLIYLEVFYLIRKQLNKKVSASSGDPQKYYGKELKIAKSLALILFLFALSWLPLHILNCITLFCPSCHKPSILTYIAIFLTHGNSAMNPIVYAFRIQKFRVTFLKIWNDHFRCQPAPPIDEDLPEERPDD
UniProt P0DMS8, whole entry: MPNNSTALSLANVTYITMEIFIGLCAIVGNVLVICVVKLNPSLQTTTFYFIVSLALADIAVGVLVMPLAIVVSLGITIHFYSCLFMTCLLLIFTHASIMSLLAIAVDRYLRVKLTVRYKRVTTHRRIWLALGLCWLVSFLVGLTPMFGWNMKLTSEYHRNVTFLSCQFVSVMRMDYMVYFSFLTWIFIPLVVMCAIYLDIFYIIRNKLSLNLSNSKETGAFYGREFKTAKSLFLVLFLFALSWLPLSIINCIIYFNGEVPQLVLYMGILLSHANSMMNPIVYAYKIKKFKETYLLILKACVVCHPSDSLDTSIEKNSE

The target of one assay is human A1AR (Homo sapiens (Human), UniProt P30542). As to the kind of experiment: Binding assay to the human A1AR ([3H]R-PIA). To be noted: CHO cells, Table 3.
The next assay has as its target human A3AR (Homo sapiens (Human), UniProt P0DMS8). As to the kind of experiment: Competitive binding assay to the human A3AR ([125I]I-AB-MECA). The note with it: CHO cells, Table 3.
Another assay has as its target human A2A AR (Homo sapiens (Human), UniProt P29274). As to the kind of experiment: Binding assay to the human A2A AR ([3H]CGS21680). The note with it: [3H]CGS 21680, Table 3.

For `Clc1ccc(Nc2nc3ccccc3c3nc(C4CCCC4)[nH]c23)cc1Cl`, on human A1AR, the “hA1AR % displ. at 10 μM” value amounted to 15%. For the same compound, the “hA3AR % displ. at 10 μM” value at human A3AR worked out at 67%. The “hA2AAR, % displ. at 10 μM” value on human A2A AR is on record as less than 10%.
